Antibody variant affinities, Ab-91 heavy chain, assay 2

Target peptide (SARS-CoV-2 spike, HR2 region): PDVDLGDISGINAS

Each scFv is VL, the linker GGGGSGGGGSGGGGS, VH, as in the parent Ab-91, and differs from it in the CDRs of the heavy chain only.
VL: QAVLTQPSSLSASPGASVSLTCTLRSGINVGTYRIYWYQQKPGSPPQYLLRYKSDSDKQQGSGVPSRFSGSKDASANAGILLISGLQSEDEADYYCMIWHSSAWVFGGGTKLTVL
VH: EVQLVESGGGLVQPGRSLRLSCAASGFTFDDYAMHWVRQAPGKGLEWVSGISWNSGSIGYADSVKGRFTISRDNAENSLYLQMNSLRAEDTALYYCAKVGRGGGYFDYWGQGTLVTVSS

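The parent was found by panning a naive human phage display library on the peptide. Library AAYL51 holds single substitutions and randomly drawn double and triple substitutions in the CDRs. The assay is AlphaSeq: two haploid yeast populations carry antibody and antigen on their surface. Mating (16 h, 30 °C) was followed by selection of diploids and sequencing of their barcodes. The ratio of observed to expected reads was calibrated, replicate by replicate, on BCL2-family standards whose Kd was known from biolayer interferometry. The assay was run in three technical replicates.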

Changes read parent residue, position, new residue, counted from the first residue of the VH shown. The read-out is the apparent dissociation constant on a log10 scale (nM): the lower, the stronger. Replicates are averaged; those with no signal do not enter the mean. "ND" means that the variant was in the library but no mating with the target was seen in that replicate; the authors take this as a sign of poor binding, and no number exists. Parent in this assay: reference entry 1.86, copy in this library 0.88. Three control strains display no target. For library AAYL51, 21% of the pairings with them gave a signal, with a median of 4.54 and one signal in twenty below 3.26, so weak values seen in few replicates may be background. Also given: how often the same scFv was detected with the empty control strains, with their mean in brackets.

{"changes": "G103A D107V Y108Q", "replicates, log10 nM": "4.89 / ND / ND", "mean log10 Kd (nM)": "4.89", "empty controls": "0/9"}
{"changes": "W53T I58A G104K", "replicates, log10 nM": "3.87 / 3.71 / 4.16", "mean log10 Kd (nM)": "3.91", "empty controls": "5/9 (5.71)"}
{"changes": "D30C S55M", "replicates, log10 nM": "5.70 / 6.67 / ND", "mean log10 Kd (nM)": "6.18", "empty controls": "7/9 (4.75)"}
{"changes": "N54S V64P D107V", "replicates, log10 nM": "5.77 / ND / 5.19", "mean log10 Kd (nM)": "5.48", "empty controls": "3/9 (4.92)"}
{"changes": "T28A I58G D62V", "replicates, log10 nM": "ND / ND / ND", "mean log10 Kd (nM)": "ND", "empty controls": "6/9 (4.62)"}
{"changes": "I51T G59Q Y105R", "replicates, log10 nM": "3.95 / 5.21 / ND", "mean log10 Kd (nM)": "4.58", "empty controls": "1/9 (3.88)"}
{"changes": "F27L F29L Y108V", "replicates, log10 nM": "1.44 / 1.23 / 0.98", "mean log10 Kd (nM)": "1.22", "empty controls": "6/9 (4.04)"}
{"changes": "A33Y S57Q R101Q", "replicates, log10 nM": "ND / ND / ND", "mean log10 Kd (nM)": "ND", "empty controls": "0/9"}
{"changes": "S55Y R101M F106G", "replicates, log10 nM": "ND / ND / ND", "mean log10 Kd (nM)": "ND", "empty controls": "0/9"}
{"changes": "F27H V99P Y105G", "replicates, log10 nM": "ND / 5.19 / ND", "mean log10 Kd (nM)": "5.19", "empty controls": "1/9 (3.88)"}
{"changes": "D31H G103R Y105E", "replicates, log10 nM": "ND / ND / ND", "mean log10 Kd (nM)": "ND", "empty controls": "0/9"}
{"changes": "F27Y Y32M D62A", "replicates, log10 nM": "ND / ND / ND", "mean log10 Kd (nM)": "ND", "empty controls": "0/9"}
{"changes": "F29R G50I S52D", "replicates, log10 nM": "ND / ND / 4.35", "mean log10 Kd (nM)": "4.35", "empty controls": "3/9 (4.50)"}
{"changes": "D31P N54Q D62G", "replicates, log10 nM": "ND / ND / ND", "mean log10 Kd (nM)": "ND", "empty controls": "1/9 (3.12)"}
{"changes": "G26E F29D F106S", "replicates, log10 nM": "ND / ND / ND", "mean log10 Kd (nM)": "ND", "empty controls": "1/9 (2.54)"}
{"changes": "M34V H35T G102L", "replicates, log10 nM": "ND / ND / ND", "mean log10 Kd (nM)": "ND", "empty controls": "0/9"}
{"changes": "D30M S52G F106A", "replicates, log10 nM": "ND / ND / ND", "mean log10 Kd (nM)": "ND", "empty controls": "2/9 (5.23)"}
{"changes": "G26T N54R", "replicates, log10 nM": "ND / ND / 3.86", "mean log10 Kd (nM)": "3.86", "empty controls": "0/9"}
{"changes": "I51W A61H G104D", "replicates, log10 nM": "4.72 / ND / 4.84", "mean log10 Kd (nM)": "4.78", "empty controls": "3/9 (4.59)"}
{"changes": "F29E V99I G104Q", "replicates, log10 nM": "ND / ND / ND", "mean log10 Kd (nM)": "ND", "empty controls": "0/9"}
{"changes": "G56R I58H Y108N", "replicates, log10 nM": "1.64 / 1.66 / 1.39", "mean log10 Kd (nM)": "1.56", "empty controls": "1/9 (4.66)"}
{"changes": "S63V Y105C D107M", "replicates, log10 nM": "0.89 / 0.87 / 0.39", "mean log10 Kd (nM)": "0.72", "empty controls": "8/9 (5.09)"}
{"changes": "D31H K65C D107K", "replicates, log10 nM": "4.13 / ND / ND", "mean log10 Kd (nM)": "4.13", "empty controls": "1/9 (4.55)"}
{"changes": "T28G I51A K65Q", "replicates, log10 nM": "4.85 / ND / ND", "mean log10 Kd (nM)": "4.85", "empty controls": "1/9 (5.05)"}
{"changes": "G50N Y60G G102H", "replicates, log10 nM": "ND / ND / ND", "mean log10 Kd (nM)": "ND", "empty controls": "0/9"}
{"changes": "T28Q I58C", "replicates, log10 nM": "ND / ND / ND", "mean log10 Kd (nM)": "ND", "empty controls": "1/9 (1.10)"}
{"changes": "G26M H35Q Y108W", "replicates, log10 nM": "ND / 4.00 / ND", "mean log10 Kd (nM)": "4.00", "empty controls": "0/9"}
{"changes": "S52N G59I D62C", "replicates, log10 nM": "ND / ND / ND", "mean log10 Kd (nM)": "ND", "empty controls": "1/9 (4.01)"}

From the list, the first 4 with no signal in any replicate:

| changes | replicates, log10 nM | mean log10 Kd (nM) | empty controls |
|---|---|---|---|
| T28A I58G D62V | ND / ND / ND | ND | 6/9 (4.62) |
| A33Y S57Q R101Q | ND / ND / ND | ND | 0/9 |
| S55Y R101M F106G | ND / ND / ND | ND | 0/9 |
| D31H G103R Y105E | ND / ND / ND | ND | 0/9 |

Data: MIT Lincoln Laboratory AlphaSeq set, Engelhart et al. 2022, doi:10.1038/s41597-022-01779-4, as distributed in FLAb.